Test system: Stage IV cancer
Conditions: 675 Stage IV cancer patients; iv then oral Salicinium
Procedure: A ten-year, multi-center cancer study was conducted wherein we recruited a total of 675 Stage IV cancer patients. These patients were treated and closely monitored through four participating medical and naturopathic clinics, with each clinic following standard therapeutic, monitoring and reporting protocols for each patient over a minimum study period of five years. The patients in these studies were all diagnosed by standard diagnostic methods (e.g., using tumor visualization, cytology, biopsy, blood assays for circulating tumor markers, etc.) at the start of the study as having Stage IV cancer, according to conventional diagnostic standards. Cancer types were grouped by primary cancer cytology/histochemistry, patient history and other standard criteria.
Of the 675 enrolled patients, 128 patients entered the study with diagnosed Stage IV breast cancer, 91 with Stage IV colon/rectal cancer, 34 with Stage IV head/neck cancer, 86 with Stage IV lung cancer, 32 with Stage IV non-Hodgkin's lymphoma (NHL), 28 with Stage IV melanoma, 36 with Stage IV ovarian cancer, 37 with Stage IV pancreatic cancer, 76 with Stage IV prostate cancer, 18 with Stage IV renal cancer, 23 with Stage IV sarcoma, and 34 with Stage IV uterine cancer. […]

Substance: 4-(beta-D-allopyranosyloxy)-benzaldehyde [Salicinium]
- reported adverse side effects: few or no reported adverse side effects

From patent US20240316087A1, “Compositions And Methods For Inducing Apoptosis In Anaerobic Cells And Related Clinical Methods For Treating Cancer And Pathogenic Infections” (priority 2017, published 2024)
